Assay outcomes from PubChem.
Sampled rows, rich in hits. Any-hit rate of the full collection: about 2.3%.
ARFGAP1 inhibitor: inhibits rat ARF GTPase activating protein 1. Q62848. Arfgap1-stimulated ARF1 GTP hydrolysis, GDP FP detection. inhibition, % at 16.5 µM. hit rate 0.26% among 360,000. AID 651572;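 active means inhibition above a per-plate limit, mean inhibition of low control wells plus 3 SD, cut at about 25% in these data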;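 further: 0% = DMSO wells with enzyme and 100% = wells lacking Arfgap1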
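system = rat Arfgap1 catalytic domain, aa 1-136 | technique = FP, GDP Alexa 633 tracer displaced from anti-GDP antibody, 620/688 nm | compound = one concentration, 16.5 µM, DMSO 1.26% | medium = HEPES-based buffer, pH 7.5 | timing = compound-enzyme preincubation 20 min, reaction 120 min, detection 60 min, 25 °C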
CendR NRP1 mod: modulators of CendR peptide binding to human neuropilin-1; hit rate 0.85% among 360,000; inhibition, % at 25 µM; O14786; FAM-RPARPAR peptide binding to NRP-1, fluorescence polarization;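 active means inhibition or corrected inhibition above about 18%, plus a signal ratio from 0.5 to 1.5, limit read from the data, passing the limit was not always enough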
MC4R antag cAMP: human MC4R antagonism in cAMP assay; P32245; MC4R-expressing cells, MTII-stimulated cAMP, LANCE TR-FRET; inhibition, % at 6.5 µM; hit rate 0.48% among 360,000;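 active means inhibition above its plate's cutoff, the mean of tested wells on that plate plus 3 SD, cut at about 29% in these data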;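 further: 0% = Melanotan II alone and 100% = Melanotan II plus saturating MCL0020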
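System: U2OS-MC4R stable cell line; Technique: Eu-cAMP/anti-cAMP TR-FRET, emission 671 nm; Repeats: single well per compound; Also added: Melanotan II; Dosing: one concentration, 6.5 µM nominal; Schedule: 30-min compound, 1-h challenge, 1-h detection, room temperature.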
UUG fidelity: alters start codon recognition fidelity in yeast; S. cerevisiae UUG-firefly luciferase reporter, luminescence/redox ratio; activity score, % at 18.7 µM; actives 0.13% (n = 350,000); AID 602363;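 active = replicate mean at a twofold rise or more, about +100% in these data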;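 also: firefly luciferase made from a UUG start codon reports start codon fidelity; reporter light over untreated wells divided by growth signal over untreated wells; some hits fall short of that in this replicate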
MC4R ag barr: human MC4R agonism via beta-arrestin; P32245; U2OS MC4R beta-arrestin complementation, luminescence; percent of melanotan II response, DMSO zero; hit rate 0.98% among 360,000; activation, % at 8.9 µM;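 active means activation above a per-plate cutoff, the mean activation of sample wells on that plate plus 3 SD, cut at about 8% in these data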
ASAP1 inh: ASAP1 ArfGAP inhibition. Q9ULH1. AID 624377. hit rate 0.19% among 360,000. ASAP1-stimulated ARF1 GTP hydrolysis, GDP FP detection. inhibition, % at 16.5 µM; in the data active means inhibition above about 25%;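 further: 0% = vehicle with enzyme and substrate and 100% = no enzyme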
MC4R barr ag: human MC4R beta-arrestin agonism confirmation; U2OS MC4R beta-arrestin recruitment, luminescence; scaled DMSO 0%, Melanotan II 100%; activation, % at 8.9 µM; AID 602192; shares compounds with MC4R ag barr; hit rate 31% among 2,400;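 active means mean activation across replicates above the hit cutoff set in the earlier primary screen, cut at about 8% in these data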
MOR DOR agonist: OPRM1-OPRD1 heterodimer agonism counter-screen; shares compounds with MC4R ag barr; U2OS PathHunter beta-arrestin, beta-gal luminescence; percent of deltorphin B response, DMSO zero; activation, % at 9.2 µM; hit rate 5.8% among 2,400; AID 602194;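 active means mean activation across replicates exceeds the hit threshold derived in the earlier primary screen, cut at about 18% in these data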;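 further: 100% = deltorphin B at 0.9 µM final and 0% = DMSO alone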
* marks the source's active call; other numbers are inactive results.

Screening CCn1cc([N+](=O)[O-])c(C(=O)N2N=C(c3ccc4ccccc4c3)CC2c2cc(Br)ccc2O)n1 (stereo unspecified) returned CendR NRP1 mod -14, MC4R antag cAMP 5, UUG fidelity -17, MC4R ag barr 16*, MC4R barr ag 9.0* and MOR DOR agonist 6.
Cc1ccc(S(=O)(=O)Nc2ccc3c(c2)C(=O)N([C@H](C)CO)C[C@H](C)[C@H](CN(C)C(=O)Nc2ccccc2)O3)cc1 was read as UUG fidelity -16.
For Cc1ccc(C(C)C)c(OCc2ccc(C(=O)N/N=C/c3ccc(O)c(O)c3)cc2)c1 the results were ARFGAP1 inhibitor 9, CendR NRP1 mod -6, MC4R antag cAMP 18, UUG fidelity -13, MC4R ag barr 20*, ASAP1 inh 13, MC4R barr ag 9.0* and MOR DOR agonist 6.
`CCCCCCCC/C=C\CCCCCCCC(=O)NCCc1ccc(O)c(O)c1` gave ARFGAP1 inhibitor 0, CendR NRP1 mod -4, MC4R antag cAMP 14, UUG fidelity -19, MC4R ag barr 9.8*, ASAP1 inh 13, MC4R barr ag 7 and MOR DOR agonist 5.
For COc1ccccc1NC(=S)NC(=O)c1ccc(Cn2cc(Br)cn2)cc1 the results were ARFGAP1 inhibitor 10, CendR NRP1 mod -3, MC4R antag cAMP -24, MC4R ag barr 24*, ASAP1 inh -2, MC4R barr ag 12* and MOR DOR agonist 12.
For CCn1cc(C(=O)NC(=S)Nc2ccccc2Br)cn1 the results were ARFGAP1 inhibitor -6, CendR NRP1 mod 9, MC4R antag cAMP -2, UUG fidelity -24, MC4R ag barr -4 and ASAP1 inh -16.
`O=C(COC(=O)c1ccc(S(=O)(=O)N2CCCC2)cc1)Nc1ccccc1Cl` gave ARFGAP1 inhibitor -8, CendR NRP1 mod 0, MC4R antag cAMP 6, UUG fidelity -12, MC4R ag barr 2 and ASAP1 inh -7.
O=C(COC(=O)c1cccc(S(=O)(=O)N2CCCCCC2)c1)NCc1ccc(Cl)cc1 was read as ARFGAP1 inhibitor -5, CendR NRP1 mod 12, MC4R antag cAMP 0, UUG fidelity -3, MC4R ag barr 9.8*, ASAP1 inh 14, MC4R barr ag 2 and MOR DOR agonist 3.
For O=C(COC(=O)c1cccc(S(=O)(=O)N2CCCCC2)c1)NCc1ccccc1 the results were ARFGAP1 inhibitor 7, CendR NRP1 mod 5, MC4R antag cAMP -12, UUG fidelity -2, MC4R ag barr -1 and ASAP1 inh 2.
`O=C(COC(=O)c1ccc(S(=O)(=O)N2CCCCC2)cc1)Nc1ccccc1Cl` gave ARFGAP1 inhibitor 10, CendR NRP1 mod 2, MC4R antag cAMP 14, UUG fidelity -14, MC4R ag barr 23*, ASAP1 inh 0, MC4R barr ag 0 and MOR DOR agonist 2.
Screening Cc1cccc(NC(=O)COC(=O)c2ccc(S(=O)(=O)N3CCCCCC3)cc2)c1 returned ARFGAP1 inhibitor 1, CendR NRP1 mod 4, MC4R antag cAMP 8, UUG fidelity -11, MC4R ag barr 12*, ASAP1 inh -10, MC4R barr ag 2 and MOR DOR agonist 3.
For C[C@@H]1CN([C@@H](C)CO)S(=O)(=O)c2ccc(C#Cc3ccccc3F)cc2O[C@H]1CN(C)CC1CCOCC1 the results were UUG fidelity 5.
Screening O=C(NCCN1C(=O)S/C(=C/c2ccccc2)C1=O)C1CC(=O)N(Cc2ccccc2)C1 (stereo unspecified) returned ARFGAP1 inhibitor 8, CendR NRP1 mod 1, MC4R antag cAMP 5, UUG fidelity -4, MC4R ag barr -3 and ASAP1 inh -2.
For Cc1nn(Cc2ccccc2)c(C)c1C(=O)NCCN1C(=O)S/C(=C\c2ccccc2)C1=O the results were ARFGAP1 inhibitor -7, CendR NRP1 mod -9, MC4R antag cAMP 1, UUG fidelity -18, MC4R ag barr 11*, ASAP1 inh 2, MC4R barr ag 1 and MOR DOR agonist 1.

2 entries drawn at random from the list so far, as already listed:
O=C(COC(=O)c1cccc(S(=O)(=O)N2CCCCCC2)c1)NCc1ccc(Cl)cc1 was read as ARFGAP1 inhibitor -5, CendR NRP1 mod 12, MC4R antag cAMP 0, UUG fidelity -3, MC4R ag barr 9.8*, ASAP1 inh 14, MC4R barr ag 2 and MOR DOR agonist 3.
Screening O=C(NCCN1C(=O)S/C(=C/c2ccccc2)C1=O)C1CC(=O)N(Cc2ccccc2)C1 (stereo unspecified) returned ARFGAP1 inhibitor 8, CendR NRP1 mod 1, MC4R antag cAMP 5, UUG fidelity -4, MC4R ag barr -3 and ASAP1 inh -2.
